## Curated experimental data: vapor pressure values

From the experimental data distributed with OPERA 2.9.

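These are experimental values that the OPERA curators gathered from public databases to train and test their QSAR models. A listed value is a point estimate from one report or more. Conditions of the individual experiments are not part of the data. The measured form (salt, isomer or mixture) is not always the one drawn. Unmarked limits or estimates from the upstream databases cannot be ruled out.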

Vapor pressure is log10 of mmHg; the set covers 15 to 30 °C, mostly 20 to 25 °C.
Cells with "n/a" have no entry in this list.
The databases behind each value are named after "via".

| SMILES | name | log vapor pressure (log10 mmHg) | via |
|---|---|---|---|
| CC(S)CC(=O)OCC(COC(=O)CC(C)S)(COC(=O)CC(C)S)COC(=O)CC(C)S (stereo not given) | n/a | -11.18 | eChemPortal |
| C1CC[Si]2(C1)O[Si]1(CCCC1)O[Si]1(CCCC1)O[Si]1(CCCC1)O2 | n/a | -0.607 | OCHEM |
| NCC1C2CCC(C2)C1CN (stereo not given) | (Bicyclo[2.2.1]heptane-2,3-diyl)dimethanamine | -0.862 | eChemPortal |
| C=CCCCCCCCCC(C)CCCCCCCC (stereo not given) | 1-Decene, dimer | -1.849 | eChemPortal |
| C=CCOC(=O)/C=C/c1ccccc1 | n/a | -2.462 | eChemPortal |
| C=C(C)C(=O)OCC(CCC)CCCCC (stereo not given) | 2-Propylheptyl 2-methylprop-2-enoate | -2.023 | eChemPortal |
| CCCCC(CC)COC(=O)c1ccc(Nc2nc(Nc3ccc(C(=O)NC(C)(C)C)cc3)nc(Nc3ccc(C(=O)OCC(CC)CCCC)cc3)n2)cc1 (stereo not given) | Iscotrizinol | -5.846 | eChemPortal |
| CCCCCCCCCC(C)(C)SSC(C)(C)CCCCCCCCC | Disulfide, di-tert-dodecyl | -5.791 | eChemPortal |
| CC(O)COc1ccc(C(C)(C)c2ccc(OCC(C)O)cc2)cc1 (stereo not given) | Bisphenol A bis(2-hydroxypropyl) ether | -7.763 | eChemPortal |
| CC1(C)[C@H]2[C@H](O)OC(=O)[C@H]21 | n/a | -4.949 | eChemPortal |
| CC/C=C\CCOC(=O)c1ccccc1 | (3Z)-Hex-3-en-1-yl benzoate | -2.472 | eChemPortal |
| CCCCCCCCC=COCC | 1-Decene, 1-ethoxy- | -1.239 | eChemPortal |
| CCNc1nc(Cl)nc(N(CC)CC)n1 | Trietazine | -4.171 | OCHEM, PubChem |
| CCC[C@H]1CC[C@H](C2CCC(CC)CC2)CC1 (stereo partly drawn) | n/a | -3.618 | eChemPortal |
| Clc1cc(Cl)c2cc(Cl)ccc2c1 | 1,3,7-Trichloronaphthalene | -3.065 | OCHEM |
| COc1cc(NS(=O)(=O)c2ccc(N)cc2)nc(OC)n1 | Sulfadimethoxine | -8.801 | OCHEM |
| O=[N+]([O-])c1cc(O)ccc1NCCCO | 4-Hydroxypropylamino-3-nitrophenol | -6.314 | eChemPortal |
| C=C(C)CNCC | N-Ethyl-2-methylallylamine | 1 | eChemPortal |
| Clc1cccc(-c2c(Cl)cc(Cl)c(Cl)c2Cl)c1Cl | PCB 131 | -5.025 | OCHEM |
| CCCCOC(=O)NC1CCC(CC2CCC(NC(=O)OCCCC)CC2)CC1 (stereo not given) | 4,4'-Methylenebis(N-butoxycarbonylcyclohexanamine) | -9.62 | eChemPortal |
| CCCCCCC(=O)OC(=O)CCCCCC | Heptanoic acid, 1,1'-anhydride | -2.782 | eChemPortal |
| O=C(Nc1nnc[nH]1)c1ccccc1O | 2-Hydroxy-N-(4H-1,2,4-triazol-3-yl)benzamide | -4.512 | eChemPortal |
| C=C(C)C(=O)OC1CCC(C(C)(C)C)CC1 (stereo not given) | 4-(1,1-Dimethylethyl)cyclohexyl methacrylate | -1.666 | eChemPortal |
| COc1cccc(C(=O)Cl)c1C | Benzoyl chloride, 3-methoxy-2-methyl- | -2.593 | eChemPortal |
| CCOC(C)(OCC)OCC | Ethane, 1,1,1-triethoxy- | 0.407 | eChemPortal |
| O=C(O)C(O)c1ccccc1 (stereo not given) | Mandelic acid | -6.339 | eChemPortal |
| COc1ccc(C(=O)Nc2ccccc2)cc1N=Nc1c(O)c(C(N)=O)cc2ccccc12 | n/a | -10.43 | eChemPortal |
| Cl.NC(CO)(CO)CO | Tromethamine hydrochloride | -6.56 | eChemPortal |
| Brc1cccc(Oc2c(Br)cc(Br)cc2Br)c1 | BDE-69 | -5.569 | OCHEM |
| CC1=C(C#N)C(C)(C)CCC1 | 2,6,6-trimethyl-1-cyclohexene-1-carbonitrile | -1.286 | eChemPortal |
| CC1=C(O)C(=O)C(C)O1 (stereo not given) | 4-Hydroxy-2,5-dimethyl-3(2H)furanone | -2.216 | PubChem, eChemPortal |
| CCCCN(CCCC)c1nc(S)nc(S)n1 | 1,3,5-Triazine-2,4(1H,3H)-dithione, 6-(dibutylamino)- | -10.36 | eChemPortal |
| O=C1CCCCCCCCCCCCCCO1 | Pentadecan-15-olide | -3.195 | eChemPortal |
| CCC(C)(CCCC(C)C)OC(C)=O (stereo not given) | 3,7-Dimethyloctan-3-yl acetate | -0.763 | eChemPortal |
| C=CCCCCCCCCCCCCCCCCCCCCCCCCCC | 1-Octacosene | -6.401 | OFMPub |
| C[SiH](C)c1ccccc1 | Benzene, (dimethylsilyl)- | 0.565 | OCHEM |
| ClC1=C(Cl)[C@]2(Cl)C(Cl)=C(Cl)[C@H]3[C@H]1[C@H](Cl)C[C@H]32 | Alpha-Chlordene | -4.602 | OCHEM |
| Cc1ccc2c(=O)c3cccc(CC(=O)O)c3oc2c1C | 5,6-Dimethylxanthenone-4-acetic acid | -10 | eChemPortal |
| Clc1ccc(-c2c(Cl)cc(Cl)c(Cl)c2Cl)c(Cl)c1 | 2,2',3,4,4',6-Hexachlorobiphenyl | -4.644 | OCHEM |
| OCCOCc1ccccc1 | Ethanol, 2-(phenylmethoxy)- | -1.699 | OCHEM |
| C=C(C)C(=O)OCCOCCOCCOCCOC(=O)C(=C)C | Tetraethyleneglycol dimethacrylate | -5.603 | eChemPortal |
| CC1(C)C(O)C(C)(C)C1O (stereo not given) | 2,2,4,4-Tetramethylcyclobutane-1,3-diol | -3.33 | eChemPortal |
| C=C(C)c1cccc(C(=C)C)c1 | m-Bis(1-methylvinyl)benzene | -0.885 | eChemPortal |
| NCCNCCS(=O)(=O)[O-].[Na+] | n/a | -4.199 | eChemPortal |
| CC(N)CCN (stereo not given) | 1,3-Butanediamine | 0.653 | PubChem |

Again, the 6 entries with the lowest log vapor pressure:

| SMILES | name | log vapor pressure (log10 mmHg) | via |
|---|---|---|---|
| CC(S)CC(=O)OCC(COC(=O)CC(C)S)(COC(=O)CC(C)S)COC(=O)CC(C)S (stereo not given) | n/a | -11.18 | eChemPortal |
| COc1ccc(C(=O)Nc2ccccc2)cc1N=Nc1c(O)c(C(N)=O)cc2ccccc12 | n/a | -10.43 | eChemPortal |
| CCCCN(CCCC)c1nc(S)nc(S)n1 | 1,3,5-Triazine-2,4(1H,3H)-dithione, 6-(dibutylamino)- | -10.36 | eChemPortal |
| Cc1ccc2c(=O)c3cccc(CC(=O)O)c3oc2c1C | 5,6-Dimethylxanthenone-4-acetic acid | -10 | eChemPortal |
| CCCCOC(=O)NC1CCC(CC2CCC(NC(=O)OCCCC)CC2)CC1 (stereo not given) | 4,4'-Methylenebis(N-butoxycarbonylcyclohexanamine) | -9.62 | eChemPortal |
| COc1cc(NS(=O)(=O)c2ccc(N)cc2)nc(OC)n1 | Sulfadimethoxine | -8.801 | OCHEM |